# Yeast mating assay 1: variants of the scFv Ab-14

Data: MIT Lincoln Laboratory AlphaSeq set, Engelhart et al. 2022, doi:10.1038/s41597-022-01779-4, as distributed in FLAb.

Antigen: PDVDLGDISGINAS, a 14-residue peptide of the SARS-CoV-2 spike HR2 region.

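The starting antibody came from a phage panning campaign against this peptide. AAYL49 was designed without a model: most single CDR substitutions and a random sample of double and triple ones. Affinity was read by AlphaSeq, a pooled yeast mating assay with surface-displayed partners. Mating (16 h, 30 °C) was followed by selection of diploids and sequencing of their barcodes. Each replicate has its own calibration line, from reference interactions of the BCL2 family. The assay was run in three technical replicates.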

The variants keep the light chain, the linker and the frameworks of Ab-14 (scFv order VH, the linker GGGGSGGGGSGGGGS, VL).
VH: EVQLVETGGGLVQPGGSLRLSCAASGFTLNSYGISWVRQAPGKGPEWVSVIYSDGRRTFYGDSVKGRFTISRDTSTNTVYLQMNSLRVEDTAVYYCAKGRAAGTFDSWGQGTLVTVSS
VL: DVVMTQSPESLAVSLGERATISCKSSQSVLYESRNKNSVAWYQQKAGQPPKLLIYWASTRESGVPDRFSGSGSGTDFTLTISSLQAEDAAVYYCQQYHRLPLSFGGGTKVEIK

Changes read parent residue, position, new residue, counted from the first residue of the VH shown.
The Kd shown is the geometric mean over detected replicates; a lower Kd is a better binder.
An entry "not detected" has no value in the source: the pair was not observed among the diploids in any replicate. This suggests poor binding but is not conclusive.

changes,Kd (apparent),detected,control signals
R56K F59C D62I,not detected,0/3,2/9
R57T V64R D106G,not detected,0/3,0/9
R56W G103H,not detected,0/3,0/9
T28W R57H Y60T,not detected,0/3,0/9
T58H Y60H A102P,not detected,0/3,0/9
S31C G33L F59Y,not detected,0/3,1/9
D62P A102L S107M,340 nM,3/3,3/9
Y32P R56Q,not detected,0/3,4/9
D62R A102E T104S,not detected,0/3,1/9
N30M S53P D62M,660 nM,1/3,1/9
G26K R56M F105Y,220 nM,3/3,0/9
Y32V G33H R57N,not detected,0/3,1/9
T58A G61L S63G,580 nM,3/3,0/9
V50W R56Y R100G,not detected,0/3,0/9
I51A D54Y D106A,not detected,0/3,1/9
I51Q F105C S107D,17 µM,1/3,1/9
N30P A102C D106A,not detected,0/3,1/9
Y52P T58F,5.8 µM,1/3,1/9
S35L Y60R A102K,8.6 µM,1/3,0/9
A102Q F105D D106V,1.9 µM,1/3,1/9
S31A S35E G103I,not detected,0/3,2/9
F27V Y60D G61M,not detected,0/3,2/9
T28P T58C,66 µM,1/3,1/9
Y32Q Y52D S63E,130 µM,1/3,3/9
S35V D54I G61Q,not detected,0/3,0/9
N30G F59W A102R,60 nM,3/3,3/9
I51S S53W R57Q,3.8 µM,1/3,1/9
G26M D54R G55H,not detected,0/3,0/9
I51Y Y52L R56P,not detected,0/3,1/9
D62V S63D G103V,73 nM,3/3,0/9
F27W G33S G55Y,71 µM,1/3,4/9
T28V D62M A101L,1.4 µM,2/3,1/9
T28M Y60D,4.6 µM,1/3,0/9
N30A G99N T104R,not detected,0/3,0/9
T58E S63G G103Q,310 nM,1/3,0/9

Continued, with the values leading:

Kd (apparent),detected,control signals,changes
not detected,0/3,3/9,G26H F59Y V64N
9.5 nM,3/3,1/9,Y32N A101S
not detected,0/3,1/9,S31W S35A G61S
not detected,0/3,0/9,S35E G61E S107K
not detected,0/3,7/9,Y32P R100T
18 µM,1/3,2/9,I34D G55R S107M
5.5 nM,3/3,1/9,K65A F105H
38 µM,3/3,7/9,D54Q R57Q A102D
not detected,0/3,1/9,S31M D54G R56S
300 nM,3/3,1/9,N30K S31N V50I
not detected,0/3,0/9,I51M S53F D106V
78 µM,1/3,2/9,G33E A101V T104L
670 nM,3/3,0/9,N30Q A101R F105A
490 µM,1/3,1/9,L29V Y52V G61M
30 µM,1/3,1/9,R56A G61I D62I
25 nM,3/3,1/9,R57K D106F
not detected,0/3,1/9,G33R R100Y A102Q
520 nM,2/3,0/9,K65H T104M
not detected,0/3,0/9,S53V V64I A102S
64 µM,1/3,0/9,I51H R56Y G61I
not detected,0/3,1/9,S31W A102V T104F
1.0 µM,1/3,0/9,T28P S35Q G99E
4.0 mM,1/3,6/9,D54H T58S R100H
14 µM,2/3,3/9,G33A R57P G103K
1.9 µM,2/3,0/9,G33L D54I G99C
not detected,0/3,0/9,S31F G99V T104M
5.6 µM,3/3,3/9,G26L F27H I34F
not detected,0/3,0/9,V50T S53K G103M
62 nM,3/3,1/9,T28V N30S R100Q
21 nM,3/3,0/9,V64A G103E S107D
not detected,0/3,1/9,I34Y D62W
not detected,0/3,0/9,G33K I34K A102Y
not detected,0/3,2/9,I51Y S63G A102Q
74 nM,3/3,1/9,F105R S107R
18 µM,2/3,1/9,G55Q D62T G99R
not detected,0/3,0/9,G26C S53C A102M

For reference, 11 entries of the list once more:

| changes | Kd (apparent) | detected | control signals |
|---|---|---|---|
| G26L F27H I34F | 5.6 µM | 3/3 | 3/9 |
| T28P S35Q G99E | 1.0 µM | 1/3 | 0/9 |
| I51A D54Y D106A | not detected | 0/3 | 1/9 |
| I51Y S63G A102Q | not detected | 0/3 | 2/9 |
| N30P A102C D106A | not detected | 0/3 | 1/9 |
| T58A G61L S63G | 580 nM | 3/3 | 0/9 |
| T28V N30S R100Q | 62 nM | 3/3 | 1/9 |
| G26K R56M F105Y | 220 nM | 3/3 | 0/9 |
| R56W G103H | not detected | 0/3 | 0/9 |
| D62R A102E T104S | not detected | 0/3 | 1/9 |
| N30G F59W A102R | 60 nM | 3/3 | 3/9 |

Nonspecific signal, from three strains lacking the peptide, appeared in 15% of pairings of library AAYL49, centred on 11 µM (5% of these signals below 680 nM); values are not corrected for it. The control count says in how many pairings with the empty strains this scFv gave a signal.
Parent in this assay: reference entry 4.4 nM, copy in this library 13 µM (one replicate of three).